By UniProt entry, the sequences of proteins in these tests, tags left out.
UniProt P50406, whole entry: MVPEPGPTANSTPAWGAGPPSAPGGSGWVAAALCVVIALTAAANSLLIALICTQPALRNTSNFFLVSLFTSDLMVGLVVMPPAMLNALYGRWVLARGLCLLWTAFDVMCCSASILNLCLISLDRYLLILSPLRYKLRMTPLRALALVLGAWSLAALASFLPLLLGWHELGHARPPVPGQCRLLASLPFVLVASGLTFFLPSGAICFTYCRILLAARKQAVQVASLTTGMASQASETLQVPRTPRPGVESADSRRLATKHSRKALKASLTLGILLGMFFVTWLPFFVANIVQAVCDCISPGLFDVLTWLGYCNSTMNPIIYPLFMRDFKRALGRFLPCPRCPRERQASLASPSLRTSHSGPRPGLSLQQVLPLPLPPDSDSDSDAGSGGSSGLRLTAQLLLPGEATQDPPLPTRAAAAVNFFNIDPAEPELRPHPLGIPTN

In US6858640B2, “Tricyclic indole compounds having affinity for serotonin receptor” (Shionogi & Co., Ltd., priority 2000, dated 2005):

Target: 5HT6 (Homo sapiens, UniProt P50406)
Assay: radioligand binding to serotonin receptor, cell membrane sample, Ki by Cheng-Prusoff
Details: read-out: Ki value (nM) ±SE 5-HT6; rat 5-HT6 (HEK293), 8 nM [3H] 5HT 25° C. 120 min or 4 nM [3H] LSD 37° C. 60 min; tested form: oxalate
Experimental: A mixture of radioactive ligands and some cardinal numbers of test compounds was incubated with a sample of cell membrane, which was prepared from brain of rats or HEK293 cells, which expressed the receptor, under the following conditions. Then, the sample was filtered by suction on a Whatman GF/C. Radioactivity on the filter was encountered by the use of a liquid scintillation counter. 50% Inhibitory concentration values (IC50 values) of each selective binding were calculated for test compounds and the Ki value was obtained by applying an equation of Cheng-Prusoff [Biochem. Pharmacol. 22 (1973) 3099-3108] Ki=IC50/(1+[L]/Kd).

With `CNC1COc2c(C)ccc3[nH]c(C)c(c23)C1` (stereo not shown) the Ki was 2.7 nM.
